Measured values reported in US20050096360A1, “Inhibitors of semicarbazide-sensitive amine oxidase (SSAO) and VAP-1 mediated adhesion useful for treatment of diseases” (priority 2003, published 2005).
Structures can show the parent of a compound that is named as a salt.

Test system: oxazolone-induced colitis in SJL/J mice
Details: 10 mg/kg i.p. twice a day from day 6
Description: Oxazolone colitis is induced as described (Fuss I. J. et al. (2002) J. Immunol. 168: 900). Briefly, mice are pre-sensitized by skin epicutaneous application of 3% oxazolone (4-ethoxymethylene-2-phenyl-2oxazolin-5-one, Sigma) in 100% EtOH (150 μl) on day 0, followed by intrarectal administration of 1% oxazolone in 50% EtOH (100 μl) to anesthetized SJL/J male mice on day 5 through a 3.5 F catheter inserted 4 cm proximal to the anal verge. Mice are divided in three treatment groups and injected i.p. twice a day with: PBS and a compound of the invention. Injections are initiated at day 0 and are continued through day 7 or the end of the study.
A study was carried out using the protocol in Example 20 for oxazolone-induced colitis. Injections were initiated at day 0 and were continued through the end of the study. Disease progression was evaluated for 12 days (6 days after intrarectal administration) by monitoring survival rates and body weight, as well as by macroscopic evidence of colitis (i.e. rectal prolapse, colon size, colon weight). […] Kaplan-Meyer survival curves and unpaired t tests were calculated using GraphPad Prism software (San Diego, Calif.).
Thus, animals from a similar study were sacrificed seven days after initial sensitization and their colons removed and fixed in 1% formalin. […] Kaplan-Meyer survival curves were calculated using GraphPad Prism software (San Diego, Calif.).

## C=C(CNN)c1ccccc1 [Example 2, Hydrochloride]
  survival, administration after disease onset: significant impact
